Test results published in ChEMBL document CHEMBL5042528, “Optimization of 2-Amino-4,6-diarylpyrimidine-5-carbonitriles as Potent and Selective A1 Antagonists” (J Med Chem, 2022).
pKi: −log10 of the molar value.

The chains behind the UniProt entries cited, without tags or fusion partners.
UniProt P30542, whole entry: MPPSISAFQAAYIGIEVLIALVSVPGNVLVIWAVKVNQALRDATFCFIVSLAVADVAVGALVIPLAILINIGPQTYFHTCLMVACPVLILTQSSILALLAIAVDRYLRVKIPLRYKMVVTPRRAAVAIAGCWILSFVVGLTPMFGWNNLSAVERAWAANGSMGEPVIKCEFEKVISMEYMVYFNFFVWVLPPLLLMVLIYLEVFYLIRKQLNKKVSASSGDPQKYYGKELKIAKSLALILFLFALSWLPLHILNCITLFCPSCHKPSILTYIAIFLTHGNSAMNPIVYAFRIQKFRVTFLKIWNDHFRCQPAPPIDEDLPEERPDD

Target: Adenosine receptor A1 (Homo sapiens, UniProt P30542)
Assay: Displacement of [3H]DPCPX from A1 adenosine receptor (unknown origin) expressed in CHO cell membrane incubated for 60 mins at room temperature by NXT microplate scintillation counter analysis
Assay type: cell membranes

A pKi of 8.92 was found for `N#Cc1c(-c2ccccc2)nc(NC(=O)C2CCCC2)nc1-c1ccc2c(c1)OCO2` in this work.
